Results taken from US20260207765A1, “COVALENTLY-MODIFIED STEROID ACID-PEPTIDES HAVING ENHANCED STABILITY AND/OR BIOLOGICAL ACTIVITY” (priority 2022, published 2026).

Test system: JIMT-1 breast cancer cells
Assay: Drug conjugates cell cytotoxicity assay (PrestoBlue)
Type: cell-based
Settings: 72 hours
Method: A solution of either the antibody Trastuzumab (Herceptin™), or the antibody-drug conjugate thereof Trastuzumab emtansine (T-DM1), was reacted with the bifunctional linker NHS-DBCO at the desired ratios. The DBCO/antibody ratio was determined by UV-VIS absorbance spectrometry, adjusting calculations accordingly. The solution was then left to stand under stirring and in the dark for about 1 hour. The reaction was then completed by adding 50 μL per mL of a IM solution of Tris base at pH 8, and leaving to stand at room temperature for 5 minutes. […]
In a T75 flask of confluent JIMT-1 cells (at least 75%), the culture medium was removed, and 2 mL of trypsin was then added and incubated at 37° C. for about 5 minutes or until the cells detached. The trypsin was inactivated by adding 10 mL of culture medium, the cells were centrifuged at 950 rpm for 5 minutes at 4° C., viable cells were visualized with trypan blue and counted using a hematocytometer. […] Fluorescence (excitation: 535-560 nm, emission: 590-615 nm) was measured. The cells were further incubated for another 30 minutes, and a second fluorescence reading was taken.

Trastuzumab-N3-VC-(CDCA-C-SV40)2: Trastuzumab linked to the dimer via N-terminal 6-azido-L-lysine N3 and protease-cleavable valine-citrulline linker
cytotoxicity compared with the unconjugated antibody / ADC: impart cytotoxic activity

T-DM1-N3-VC-(CDCA-C-SV40)2: Trastuzumab emtansine linked to the dimer via N-terminal N3 and protease-cleavable VC linker
cytotoxicity compared with the unconjugated antibody / ADC: enhance the cytotoxic activity
